Laboratory results reported in ChEMBL document CHEMBL2177053, “Current landscape of phosphodiesterase 10A (PDE10A) inhibition” (J Med Chem, 2012).

Sequences of proteins named here, by UniProt entry; tags and fusion partners are left off. A change or cut given only in a name is not applied to a line headed by its entry.
UniProt Q9Y233: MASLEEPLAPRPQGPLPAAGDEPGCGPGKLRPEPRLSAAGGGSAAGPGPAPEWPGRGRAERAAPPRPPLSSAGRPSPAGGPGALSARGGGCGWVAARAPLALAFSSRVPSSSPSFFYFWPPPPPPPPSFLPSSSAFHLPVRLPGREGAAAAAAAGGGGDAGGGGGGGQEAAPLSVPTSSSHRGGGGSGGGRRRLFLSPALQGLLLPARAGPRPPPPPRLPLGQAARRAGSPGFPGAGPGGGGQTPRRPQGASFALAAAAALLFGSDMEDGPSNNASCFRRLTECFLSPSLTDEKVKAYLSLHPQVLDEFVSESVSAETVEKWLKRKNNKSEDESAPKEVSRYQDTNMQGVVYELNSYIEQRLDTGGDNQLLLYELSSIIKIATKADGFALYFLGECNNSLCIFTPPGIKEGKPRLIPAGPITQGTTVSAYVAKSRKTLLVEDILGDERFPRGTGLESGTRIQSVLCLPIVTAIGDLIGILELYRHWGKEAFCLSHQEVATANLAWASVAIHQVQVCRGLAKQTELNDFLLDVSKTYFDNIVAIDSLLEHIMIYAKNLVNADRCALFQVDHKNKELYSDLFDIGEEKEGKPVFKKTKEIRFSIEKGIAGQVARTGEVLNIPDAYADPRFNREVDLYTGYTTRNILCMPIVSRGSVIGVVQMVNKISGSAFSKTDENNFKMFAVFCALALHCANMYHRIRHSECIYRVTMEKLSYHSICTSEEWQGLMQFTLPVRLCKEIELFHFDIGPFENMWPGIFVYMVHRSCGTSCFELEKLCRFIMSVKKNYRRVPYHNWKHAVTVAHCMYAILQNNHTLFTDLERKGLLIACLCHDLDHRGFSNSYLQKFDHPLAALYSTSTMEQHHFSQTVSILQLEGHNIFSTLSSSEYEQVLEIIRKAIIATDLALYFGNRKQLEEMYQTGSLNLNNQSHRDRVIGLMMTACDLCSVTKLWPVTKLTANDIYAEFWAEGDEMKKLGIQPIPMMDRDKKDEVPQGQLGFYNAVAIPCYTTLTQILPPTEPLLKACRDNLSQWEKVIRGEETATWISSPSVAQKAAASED

Biological target: cAMP and cAMP-inhibited cGMP 3',5'-cyclic phosphodiesterase 10A (Homo sapiens, UniProt Q9Y233)
Assay: Inhibition of PDE10A

Row | IC50 | Compound
1 | 0.05 nM | CC(=O)N1CCCC(c2cccnc2Oc2ccc(C(=O)c3nc4ccccc4[nH]3)cc2)C1 (configuration not stated)
2 | 0.96 nM | c1cnc(Oc2ccc(Nc3nc4ccccc4s3)cc2)c(N2CCOCC2)c1
